Laboratory results published in article PMC11129182, “Development of Inhibitors, Probes, and PROTAC Provides a Complete Toolbox to Study PARK7 in the Living Cell” (Journal of Medicinal Chemistry, 2024).

Legend:
[1] = test system: DUBs; assay: Activity-based DUB profiling with Rho-Ub-PA probe in HEK293T cells; type: cell-based, human; conditions: 5 µM, 24 h
Experimental: Figure S3. Activity evaluation of inhibitors against DUBs in HEK293T cells. (A ) Inhibitors from structure modification. (B) Inhibitors from HTS. HEK293T cells were […]
incubation with Rho- Ub-PA probe for 30 min at 37 °C. Samples were resolved by SDS - […]
and visualized by fluorescence scanning on a Typhoon FLA 9500 (GE Healthcare Life […]
Nitrocellulose membranes and Western blot analysis.
(1 picture or pasted object on this page, not shown here)

[2] = test system: other proteins of A549 cells; assay: TMT-based global proteomic profiling in A549 cells, other proteins; type: cell-based, Homo sapiens; conditions: 5 μM, 8 h
Experimental: A549 cells were seeded into 10 cm plates in 10 mL of media. […] Cells were lysed using a 5% SDS lysis buffer (100 mM Tris-HCl, pH 7.6) and were incubated at 95 °C for 4 min. Protein determination was performed using the Pierce BCA Gold protein assay. 100 μg of protein of each sample was reduced and alkylated, and excess iodoacetamide was quenched using 5 mM TCEP, 15 mM iodoacetamide, and 10 mM DTT, respectively. The protein was pelleted down using chloroform/methanol precipitation, and the resulting pellets were resolubilized in 40 mM HEPES pH 8.4. […] The Pierce BCA Gold protein assay was used to determine the peptide concentration. The peptides were labeled with TMTpro Label Reagents in a 1:4 ratio by mass (peptides/TMT reagents) for 1 h at RT. Five μL of 6% hydroxylamine was added to quench excess TMT reagent and incubated for 15 min at RT. Samples were pooled and lyophilized. The sample was subsequently fractionated on an Agilent 1200 series HPLC system (Agilent Technologies). 75 μg of the pooled sample was dissolved in solvent A (10 mM NH4HCO3, pH 8.4), injected onto, and eluted from an Agilent Eclipse Plus C18 2.1 × 150 mm 3.5 μm column (Agilent Technologies). The gradient was run from 2 to 90% solvent B (10 mM NH4HCO3, pH 8.4 final concentration, 20/80 water/acetonitrile v/v) in 30 min at a flow rate of 200 μL/min. […]

Row | SMILES | inhibition of DUBs in cells [1] | TM7SF3 protein level (total proteome profiling) [2]
1 | N#CN1CC[C@@H](C(=O)Nc2nc3c(s2)CN(C(=O)c2cc(-n4ccnn4)ccc2F)CC3)C1 [Compound 84, (R)-1-Cyano-N-(5-(2-fluoro-5-(1H-1,2,3-triazol-1-yl)benzoyl)-4,5,6,7-tetrahydrothiazolo[5,4-c]pyridin-2-yl)pyrrolidine-3-carboxamide] | did not show interference with the activity of any DUB | downregulated
2 | N#CN1CC[C@@H](C(=O)Nc2nc3c(s2)CN(C(=O)c2cccc(S(=O)(=O)N4CCOCC4)c2)CC3)C1 [Compound 340, (R)-1-Cyano-N-(5-(3-(morpholinosulfonyl)benzoyl)-4,5,6,7-tetrahydrothiazolo[5,4-c]pyridin-2-yl)pyrrolidine-3-carboxamide] | did not show interference with the activity of any DUB | 
